Test results as given in article PMC4427575, “Functional screening system for yeast-secreted peptides acting on G-protein coupled receptors” (AMB Express, 2015).

Protein sequences, listed by entry. Tags and fused reporters are not part of them. Residues count along the entry.
UniProt P43220, 24-463: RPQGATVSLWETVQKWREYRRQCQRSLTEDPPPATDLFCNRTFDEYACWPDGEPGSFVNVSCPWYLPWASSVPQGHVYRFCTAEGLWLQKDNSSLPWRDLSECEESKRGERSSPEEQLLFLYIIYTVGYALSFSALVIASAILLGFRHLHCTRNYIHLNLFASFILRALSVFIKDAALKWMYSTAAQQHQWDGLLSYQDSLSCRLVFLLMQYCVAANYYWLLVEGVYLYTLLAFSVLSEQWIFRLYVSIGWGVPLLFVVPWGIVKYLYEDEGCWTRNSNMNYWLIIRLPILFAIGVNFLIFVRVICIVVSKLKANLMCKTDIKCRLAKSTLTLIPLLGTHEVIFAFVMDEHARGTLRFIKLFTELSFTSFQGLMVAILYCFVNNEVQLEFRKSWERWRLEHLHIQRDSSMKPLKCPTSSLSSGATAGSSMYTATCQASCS

Molecular target: T1, human GLP1R (Homo sapiens, UniProt P43220)
T1 construct: expressed in transfected cells
Assay: GLP1R activation assay using GLP1R-CHO, synthetic agonists (cAMP-screen)
Type: cell-based
Details: ratio in words

EC50 relative to the Ex4 value: one sixteenth
Structure (SMILES): CC[C@H](C)[C@H](NC(=O)[C@H](Cc1ccccc1)NC(=O)[C@H](CCC(=O)O)NC(=O)[C@H](CCCCN)NC(=O)[C@H](C)NC(=O)[C@H](C)NC(=O)[C@H](CCC(N)=O)NC(=O)CNC(=O)[C@H](CCC(=O)O)NC(=O)[C@H](CC(C)C)NC(=O)[C@H](Cc1ccc(O)cc1)NC(=O)[C@H](CO)NC(=O)[C@H](CO)NC(=O)[C@@H](NC(=O)[C@H](CC(=O)O)NC(=O)[C@H](CO)NC(=O)[C@@H](NC(=O)[C@H](Cc1ccccc1)NC(=O)[C@@H](NC(=O)CNC(=O)[C@H](CCC(=O)O)NC(=O)[C@H](CO)NC(=O)[C@@H](N)Cc1c[nH]cn1)[C@@H](C)O)[C@@H](C)O)C(C)C)C(=O)N[C@@H](C)C(=O)N[C@@H](Cc1c[nH]c2ccccc12)C(=O)N[C@@H](CC(C)C)C(=O)N[C@H](C(=O)N[C@@H](CCCCN)C(=O)NCC(=O)N[C@@H](CCCNC(=N)N)C(=O)O)C(C)C [S^2-GLP1]
